Assay results from patent US20260176253A1 (priority 2021, published 2026).

System: 5HT2A sensor
Assay type: cell-based

Structure (SMILES): CCN(CC)C(=O)N[C@H]1C=C2c3cccc4[nH]cc(c34)C[C@H]2N(C)C1 [LIS, lisuride]
- competition with 5-HT in the 5HT2A sensor assay in antagonist mode: compete off 5-HT
